One experiment concerns the target T1, SIRT3 (Homo sapiens, UniProt Q9NTG7).
T1 sequence (Q9NTG7 102-399): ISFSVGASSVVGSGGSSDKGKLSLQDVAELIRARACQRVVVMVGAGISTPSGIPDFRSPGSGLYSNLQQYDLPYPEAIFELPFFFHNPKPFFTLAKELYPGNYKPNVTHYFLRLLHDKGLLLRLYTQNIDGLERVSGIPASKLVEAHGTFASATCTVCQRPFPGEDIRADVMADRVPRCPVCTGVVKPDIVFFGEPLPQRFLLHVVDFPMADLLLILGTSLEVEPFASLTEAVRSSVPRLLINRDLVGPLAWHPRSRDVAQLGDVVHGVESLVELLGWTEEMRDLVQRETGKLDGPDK
The settings on record: p53-AMC substrate.

Experiment [1] has as its target T2, hSirt3^102-399 (Homo sapiens, UniProt Q9NTG7).
T2 sequence (Q9NTG7 102-399): T1 sequence (Q9NTG7 102-399)

For experiment [2], the target named is T2, hSirt3^102-399. The experiment in a line: hSirt3 ligand binding assay by microscale thermophoresis (MST). Details: hSirt3^102-399 was expressed in E. coli Arctic Express (DE3) cells; His-tag (only implied by the HisTrap / imidazole purification); made in house; host or cells: E. coli Arctic Express (DE3). How it is done:
The binding affinities of ligands to complexes in the catalytic mechanism of SIRT3/MnSOD peptide substrate were measured using microscale thermophoresis (MST; FIG. 9, FIG. 10). In order to carry out binding affinity measurements on the reactive complex of enzyme, acylated peptide substrate and NAD^+, the catalytically inert molecule carba-NAD^+ was synthesized and used this NAD^+ analog for those MST studies.
The latter measurements in the presence of deacylated peptide were made in order to determine whether product inhibition plays any role in the observed kinetics.
DY-647P1-NHS-Ester conjugated hSirt3^102-399 was used for MST studies. Briefly, the protein conjugation was done in 1×PBS pH 7.4, 0.05% Pluronic F-127, and the labeled protein was buffer exchanged into 47 mM Tris-HCl pH 8.0, 129 mM NaCl, 2.5 mM KCl, 0.94 mM MgCl2, 5% DMSO, 0.05% Tween-20. We used 2 nM labeled hSirt3 and titrated with varying concentrations of the modulators in the absence and presence of various concentrations of substrates, products and intermediates. The thermophoresis was measured (excitation/emission 653/672 nm) using a Monolith NT. 115 Pico (NanoTemper Technologies) at 25° C. Dissociation constants (Kd) were determined using GraFit7 (Erithacus Software) by nonlinear fitting.

The mark [3] stands for this setting: [E]0/[NAD^+]0=0.3, unsaturated HKL.

SMILES strings stand for the structures.

As for `C=CCc1ccc(O)c(-c2ccc(O)c(CC=C)c2)c1` [HKL, 5, 3′-Diallyl-2, 4′-dihydroxybiphenyl], on SIRT3 (setting [3]), the “effect on SIRT3 activity, non-steady state condition” value is reported as “activation” and the “effect on SIRT3 activity, steady state condition” value is recorded as “inhibition effect”. Also, the “decrease in steady state catalytic efficiency” value on SIRT3 (saturating HKL, absence of NAM) was 3-4 fold. Besides, at hSirt3^102-399 [1] (10 uM HKL, MnSOD substrate, [NAD^+]=50 uM, 1.5 min (FIG. 6B), p<=0.001), the “effect on SIRT3 activity, non-steady state” value was “activation”. On hSirt3^102-399 [1] (saturating HKL, MnSOD peptide substrate), the “effect on SIRT3 activity, pre-steady state phase” value is on record as “pre-steady state activation”. In addition, the “change of HKL binding affinity in the presence of NAM” value at hSirt3^102-399 [2] (Sirt3.Ac-MnSOD complex (FIG. 9D)) is recorded as “increase”. Further, at hSirt3^102-399 [2] (Sirt3.Ac-p53-AMC complex, 6.25 μM HKL (FIG. 11B)), the “effect of HKL on NAD^+ binding affinity (carba-NAD^+)” value was “decrease”. The “change of HKL binding affinity in the presence of O-acetylated ADP ribose coproduct” value on hSirt3^102-399 [2] (product complex (FIG. 10A)) is “increase”.

The values above are taken from patent publication US12565673B2, “Methods for the design of nonallosteric sirtuin activating compounds” (Chakrabarti Advanced Technology, LLC, priority 2020, dated 2026).
